Measured values as given in publication PMC8082182 (Frontiers in Pharmacology, 2021).

Details: Bloodstream; Not improved patients; IQR not reported for n < 5

Structure (SMILES): CN[C@H](CC(C)C)C(=O)N[C@H]1C(=O)N[C@@H](CC(N)=O)C(=O)N[C@H]2C(=O)N[C@H]3C(=O)N[C@H](C(=O)N[C@H](C(=O)O)c4cc(O)cc(O)c4-c4cc3ccc4O)[C@H](O)c3ccc(c(Cl)c3)Oc3cc2cc(c3O[C@@H]2O[C@H](CO)[C@@H](O)[C@H](O)[C@H]2O[C@H]2C[C@](C)(N)[C@H](O)[C@H](C)O2)Oc2ccc(cc2Cl)[C@H]1O [vancomycin]
- AUC0–24, median: 225.0 µg·h/mL
